# Data as given in paper doi:10.1101/679977v1 (bioRxiv, 2019).
# Test system: E. coli ATCC25922
# Test: Salt, serum, acid and alkaline sensitivity
# Format: cell-based
structure (smiles),measurement,setting,value
"CC[C@H](C)[C@H](NC(=O)CN)C(=O)NCC(=O)N[C@@H](C)C(=O)N[C@H](C(=O)N[C@@H](CC(C)C)C(=O)N[C@@H](CCCCN)C(=O)N[C@H](C(=O)N[C@@H](CC(C)C)C(=O)N[C@H](C(=O)N[C@H](C(=O)NCC(=O)N[C@@H](CC(C)C)C(=O)N1CCC[C@H]1C(=O)N[C@@H](C)C(=O)N[C@@H](CC(C)C)C(=O)N[C@H](C(=O)N[C@@H](CO)C(=O)N[C@@H](Cc1c[nH]c2ccccc12)C(=O)N[C@H](C(=O)N[C@@H](CCCCN)C(=O)N[C@@H](CCCNC(=N)N)C(=O)N[C@@H](CCCCN)C(=O)N[C@@H](CCCNC(=N)N)C(=O)N[C@@H](CCC(N)=O)C(=O)N[C@@H](CCC(N)=O)C(N)=O)[C@@H](C)CC)[C@@H](C)CC)[C@@H](C)O)[C@@H](C)O)C(C)C)C(C)C [MLT, Melittin, reference compound]","MIC, Control","absence of physiological salts, serum, acid and alkaline",4 µM
same,"MIC, FeCl3",in presence of 4μM FeCl3 (final),4 µM
same,"MIC, MgCl2",in presence of 1 mM MgCl2,8 µM
same,"MIC, KCl",in presence of 4.5 mM KCl (final),4 µM
same,"MIC, NaCl",in presence of 150 mM NaCl (final),16 µM
same,"MIC, PH=2",peptide incubated at pH=2 for 4 h prior to MIC determination,4 µM
same,"MIC, PH=4",peptide incubated at pH=4 for 4 h prior to MIC determination,4 µM
same,"MIC, PH=10",peptide incubated at pH=10 for 4 h prior to MIC determination,4 µM
same,"MIC, PH=12",peptide incubated at pH=12 for 4 h prior to MIC determination,4 µM
